# Apparent affinities of Ab-14 variants for a coronavirus HR2 peptide

Source: Li et al. 2023 (doi:10.1038/s41467-023-39022-2), MIT Lincoln Laboratory and A-Alpha Bio; data file from the FLAb repository.

Target: peptide PDVDLGDISGINAS, taken from heptad repeat 2 (HR2) of SARS-CoV-2 spike.

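Designed CDR sequences, proposed from the first random library and measured here. Group labels follow the data file (Ctrl: baseline library sampled from a position-specific scoring matrix, with some repeated check sequences; Rand: our label for a block that the file lists under HC and that is probably the random mutants of the ten best first-round binders; En: ensemble of fine-tuned language models; GP: Gaussian process model; HC: hill climbing; Gen: genetic algorithm; Gibbs: Gibbs sampling; a sequence that several methods proposed may carry one label only). Affinity was read by AlphaSeq, a pooled yeast mating assay with surface-displayed partners. After mating in shaken culture at 30 °C for 16 h, diploids were selected and their barcode pairs sequenced. Scores were corrected for input abundance and mapped to Kd with protein pairs of known affinity run in the same pool. Each pool was mated in six replicate cultures.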

The variants keep the heavy chain, the linker and the frameworks of Ab-14 (scFv order VH, a (GGGGS)3 linker, VL).
VH: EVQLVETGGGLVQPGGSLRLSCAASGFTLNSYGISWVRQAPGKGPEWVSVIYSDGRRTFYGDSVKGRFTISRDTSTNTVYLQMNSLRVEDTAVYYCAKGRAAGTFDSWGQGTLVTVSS
VL: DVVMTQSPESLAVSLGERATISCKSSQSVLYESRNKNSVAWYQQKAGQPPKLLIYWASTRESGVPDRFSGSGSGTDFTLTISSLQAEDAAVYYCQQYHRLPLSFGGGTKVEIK

Each variant is given by its three light chain CDRs, as the data file delimits them; those of the parent are KSSQSVLYESRNKNSVA, WASTRES, QQYHRLPLS.
Values are log10 of the apparent Kd in nM; lower means stronger binding.
A mean of the replicates is given; it leaves out those without a signal.
"nd" means that the variant was in the library but no mating with the target was seen in any replicate; the authors take this as a sign of poor binding, and no number exists.
Entries are sorted by rising average, undetected variants last.

CDR-L1	CDR-L2	CDR-L3	group	log10 Kd (nM), mean	detected	control signals
KLSQSTLYESRNKNAVA	NASTRES	QQYHRLPLS	GP_Gen	-0.47	6/6	0/18
KFSQSVLYESRQKNSVA	EASTRES	QQYHRLPLS	GP_HC	-0.44	6/6	2/18
KVKQSVLYESRNKNSVA	NASTRES	QQYHRLPLS	GP_Gen	-0.43	6/6	1/18
KISQSVLYEQRAQNSVA	EASTRES	QQYHRLPLS	GP_Gibbs	-0.09	6/6	1/18
KLQQSVLYESRNKNSVA	NASTRFS	QQYHRLPLS	GP_Gen	-0.09	6/6	0/18
KYSQSVLYEWRNKNSVA	EASTRES	QQYHRLPLS	Ctrl	-0.09	6/6	1/18
KMHISELYEDRNQNSVA	SASQRLE	QQYHRLPLS	GP_Gibbs	-0.06	6/6	1/18
KSSQSVLYESRNKNSVA	WASTRES	QQYWRLYLS	Ctrl	-0.05	1/6	0/18
KESQSVLPEWGNKNSVA	DASTRES	QQYHRLPLS	GP_HC	-0.05	6/6	0/18
KLSQMWLYESRNCNSVA	NASQREE	QQYHRLPLS	GP_Gibbs	-0.02	6/6	2/18
KVSFFNEQVTKKGSNVA	DNETREA	QQYFRLPLS	En_Gen	0.03	6/6	2/18
KSSISYLYESRNENSVA	EASFREQ	QQYHRLPLS	Rand	0.09	6/6	0/18
KLPQSVLYESRNKNAVA	SASTRES	QQYHRLPLS	GP_Gen	0.10	6/6	2/18
KSSQLVLYESRNKNSVA	HASTRES	QQYHRLPLS	Ctrl	0.10	6/6	2/18
HSSPSVVYESRNKNSVA	NASTRES	QQYHRLPLS	GP_HC	0.15	6/6	3/18
NLVQEKSVGDYNAGNVA	AGNQLSV	QQYNRLPLI	En_Gibbs	0.16	6/6	0/18
KFSQKVLYSDRTKNSVA	NASTRES	QQYHRLPLS	GP_HC	0.19	6/6	2/18
KLRQQTLYESRNKNSVA	MASQREE	QQYHRLPLS	GP_HC	0.20	6/6	4/18
KMSQSVPLESRNDNAVA	MASTRMM	QQYHRLPLS	GP_Gibbs	0.20	6/6	1/18
KQSQSVLEESRNCNSVA	DASTRES	QQYHRLPLS	GP_HC	0.24	6/6	1/18
KLSQSYLYESRNKNNVA	HASTRES	QQYHRLPLS	GP_Gen	0.27	6/6	0/18
KFSQSVLYESRTSNPVA	NASTRES	QQYHRLPLS	GP_HC	0.28	6/6	3/18
KLQQSCLYESRNPNSVA	NASYRYS	QQYHRLPLS	GP_Gibbs	0.31	6/6	1/18
KVSQSWLMESRNKNSVA	EASTRIS	QQYHRLPLS	GP_HC	0.33	6/6	1/18
NLQNIGSELSVWKNAIA	DVNIRES	QQYFRLPLL	En_Gibbs	0.34	6/6	0/18
QIYQAMHTLSQTKDNVA	DVNERGR	QQYFRLPLS	En_Gen	0.37	6/6	2/18
KISGSELEESRNKNSVA	WASVREE	QQYHRLPLS	GP_Gibbs	0.38	6/6	0/18
KFRQSTLYESRNKNSVA	NASTRES	QQYHRLPLS	GP_HC	0.38	6/6	1/18
KLYVSTMLESHDKNSIA	DLTTRGN	QQYHRLPLS	En_HC	0.43	6/6	0/18
KLPQSYNYESRNKNNVA	SASCRES	QQYHRLPLS	GP_Gibbs	0.44	6/6	2/18
KLSQSVEVLDRNKNSVA	NASTREM	QQYHRLPLS	GP_Gibbs	0.50	6/6	0/18
HVEHAWLLSNATMNAVA	NGATLAD	QQYFRLPLA	En_Gibbs	0.51	6/6	4/18
KLSNSVWMESRNKNQVA	EASTREM	QQYHRLPLS	GP_Gibbs	0.59	6/6	2/18
KLMQSMLYESRNTNSVA	HASRRES	QQYHRLPLS	GP_Gibbs	0.75	6/6	2/18
MMSQVTGSGTRHRNNVA	QTSTREP	QQYDRLPLI	En_Gen	0.80	6/6	1/18
RIQDHMAVGEMSHSSIA	EESTRMD	QQYSRLPLA	En_Gibbs	0.80	6/6	1/18
KLMQSMGYESRNFNSVA	QASTRSS	QQYHRLPLS	GP_Gibbs	0.95	6/6	1/18
KSSQSKLQESRNKNSVA	HASTRES	QQYHRLPLS	Ctrl	0.97	6/6	0/18
KFEQLDGGESRNKNSVA	NASQRED	QQYHRLPLS	GP_Gibbs	0.99	6/6	3/18
KWSCSQLYDDANKNSVA	NASTRLM	QQYHRLPLS	GP_Gibbs	1.00	4/6	0/18
TLTQVQGMESHNKDSVA	DLSTRGS	QQYHRLPLS	En_HC	1.14	5/6	1/18
KSSQSELYESGNKNSVA	HASTRED	QQYHRLPLS	GP_HC	1.21	4/6	0/18
KLSMITGHMSMSKNNVA	EMVTREK	QQYNRLPLA	En_Gen	1.21	6/6	0/18
KTSTSVLYESRNTNSVA	WASYRES	QQYARDPLS	Ctrl	1.23	5/6	0/18
KSSQSVQYESNNKNSVA	WASTRES	QQYRRLPLS	Ctrl	1.24	6/6	1/18
KIAQSVVYESRNKNSVA	WASTRES	QQYHRLPLS	Ctrl	1.31	6/6	0/18
KLPNSSLYESRNKNQVA	SASTREM	QQYHRLPLS	GP_Gibbs	1.39	5/6	0/18
KLTKAQYNATSHYQNVA	ESNKIME	QSYYRLPLS	En_Gibbs	1.71	5/6	0/18
KIYQFGLNHTHNTNSIA	DQECREA	QQYDRLPLS	En_Gen	1.72	4/6	1/18
KLYYHEVGLVNGQNSIA	EQDQLTF	QQYSHLPLS	En_Gibbs	1.75	2/6	1/18
TLYGLSNSMSINKNSVA	EMTTREK	QQYDRLPLI	En_Gen	1.78	6/6	0/18
KIGATLNTLYEKANNVA	DLVEREN	QQYYRLPLS	En_Gen	1.82	6/6	0/18
KSSQSVLDESRNKNSVA	WATTRES	QQYHRLPLS	Ctrl	1.83	6/6	4/18
KIQMFEGTLMEQINSIA	NSEVIVQ	QSYFRLPLS	En_Gibbs	1.93	5/6	0/18
QLMFKEATGMNNAYNIA	EAEYSGT	QQYSQLPLG	En_Gibbs	2.01	1/6	0/18
KSNDSSLYESRNKNSVA	WASTRES	QQYHRLPLS	Ctrl	2.23	3/6	2/18
KLSQSVLSESRNKNSVA	WASTRES	QQYHDLPLS	Ctrl	2.24	6/6	2/18
IIDQIMYHGNKHVNSIA	QASQRLN	QQYHHLPLQ	En_Gen	2.51	2/6	3/18
HMSALTLQGMRMRNSVA	QMTTREN	QQYDRLPLT	En_Gen	nd	0/6	0/18
KSQQSVLMESRNKNSVA	WASTRES	QQYHRSPLS	Ctrl	nd	0/6	0/18
KLSMSMLMESFHKNSVA	ENSTRES	QHYHRLPLS	En_HC	nd	0/6	0/18

The parent sequence was in this pool as ten entries: three were never detected, three once, and four in most replicates, with averages from 0.34 to 2.37.
The authors averaged sequences with at least three values out of six and counted those with two or fewer as poor binders.
As a blank, each scFv also met three strains without target: over all light chain designs, 4% of these pairings were detected, typically at 2.64 and seldom below 1.59. For each scFv, signals with the empty controls are counted beside the result.
The range of this assay differs from that of the first round, and the authors advise against merging the two.